The target in experiment [1] is A*1101 (Homo sapiens, UniProt P04439, A114D/D185E/E176A/F33Y/L180Q/S129P/T187R). Kind of experiment: Class I peptide-binding assay, A*1101. The note with it: Table 16a.
Experiment [2] deals with A*3101 (Homo sapiens, UniProt P04439, A270S/D185E/E176V/E277Q/F33T/G231S/G80R/H175R/I121M/I218V/I322F/K168Q/L300P/L318F/M331R/P217A/Q94H/R138Q/T323A/T345S/T97I/V358M). Kind of experiment: Class I peptide-binding assay, A*3101. The note with it: Table 16a; read-out: HLA Binding (IC50 nM) A*3101.
In experiment [3] the target is A*3301 (Homo sapiens, UniProt P04439, A270S/D185E/E176V/E277Q/E87N/F33T/G231S/H175R/I121M/I218V/I322F/K168Q/K210R/L300P/L318F/M331R/P217A/Q86R/Q94H/R138Q/T323A/T345S/T97I/V358M/Y195H). The experiment can be described thus: Class I peptide-binding assay, A*3301. The note with it: Table 16a; read-out: HLA Binding (IC50 nM) A*3301.
The target in experiment [4] is A*6801 (Homo sapiens, UniProt P04439, A269V/D185E/E176V/E277Q/E87N/F33Y/G231S/I121M/I166T/I218V/L180W/L300P/L318F/N151K/P208A/P217A/Q86R/R169H/T345S). Kind of experiment: Class I peptide-binding assay, A*6801. As to conditions: Table 16a; read-out: HLA Binding (IC50 nM) A*6801.
For experiment [5], the system named is A3 supertype family (A*0301, A*1101, A*3101, A*3301, and A*6801). Kind of experiment: A3 supertype cross-binding (alleles bound). Also noted: species or system human.
In experiment [6] the test system is PBMC from three healthy donors. The experiment can be described thus: In vitro primary immunization of PBMC, T cell proliferation (3H-thymidine incorporation). The format is cell-based, human. Background: Incorporation of labelled thymidine or its analogues reports DNA synthesis.
Experiment [7] relates to HLA-DR molecules. The note with it: 16 of the most prevalent HLA-DR molecules tested; cited from earlier work.
Experiment [8] has as its target B*1801 (Homo sapiens, UniProt P01889, A329T/A93T/A95T/C349S/D201E/D54G/D98Y/E176V/E187T/E204Q/E69T/K202T/Q94N/R155S/R180L/S121R/V306I/Y140S/Y195H/Y33H/Y91S). Kind of experiment: B44 supertype peptide binding, B*1801. The note with it: HER 2/neu-derived B44 peptides, Table 27.
For experiment [9], the target named is B*4001(B60) (Homo sapiens, UniProt P01889, A65T/A93T/A95T/D138N/D98Y/E176V/E69K/N87E/Q56L/Q94N/R180L/S121R/S35A/S48T/T167S/V36M/W171L/Y33H/Y91S). The experiment can be described thus: B44 supertype peptide binding, B*4001. As to conditions: HER 2/neu-derived B44 peptides, Table 27; read-out: B* 4001.
The target of experiment [10] is B*4501 (Homo sapiens, UniProt P01889, A329T/A65T/A93T/A95T/C349S/D138N/D201E/D98Y/E176V/E187L/E204Q/E69K/H137Y/K202T/L119W/N87E/Q56L/Q94N/R155S/R180D/S121R/S35A/S48T/V127L/V306I/V36M/W191S/Y140L/Y33H/Y91S). Kind of experiment: B44 supertype peptide binding, B*4501. The note with it: HER 2/neu-derived B44 peptides, Table 27; read-out: B* 4501.
For experiment [11], the system named is B44 supertype (B*1801, B*4001, B*4002, B*4402, B*4403, B*4501). Kind of experiment: B44 supertype cross-binding (degeneracy, number of alleles bound). Also noted: species or system human. As to conditions: number of the six B44 supertype alleles bound.

Consider `CC(C)C[C@H](NC(=O)[C@@H](NC(=O)[C@@H](N)CCCNC(=N)N)C(C)C)C(=O)N[C@H](C(=O)N[C@@H](CC(C)C)C(=O)N[C@@H](Cc1ccccc1)C(=O)N[C@@H](CC(N)=O)C(=O)N[C@H](C(=O)N[C@H](C(=O)N[C@@H](CCCNC(=N)N)C(=O)O)[C@@H](C)O)C(C)C)[C@@H](C)O` [CEA.554.V2], for which the IC50 in experiment [1] was determined as 94 nM; in experiment [2] it was 9 nM; in [3], 7630 nM; in experiment [4], 42 nM. In addition, the “Number of A3 alleles crossbound” value in experiment [5] (Table 16a) came to 4. In addition, the “change of A3 supertype binding of analog compared to wildtype peptide” value in [5] (result in words) is listed as “no improvement in binding capacity”.
On to `CC[C@H](C)[C@H](NC(=O)CNC(=O)[C@@H](NC(=O)[C@H](Cc1ccccc1)NC(=O)[C@H](CCCCN)NC(=O)[C@H](CO)NC(=O)[C@H](CC(N)=O)NC(=O)[C@H](C)NC(=O)[C@H](CCCCN)NC(=O)[C@@H](NC(=O)[C@H](Cc1ccc(O)cc1)NC(=O)[C@@H](N)CCC(N)=O)[C@@H](C)CC)[C@@H](C)CC)C(=O)N[C@H](C(=O)N[C@@H](CCC(=O)O)C(=O)O)[C@@H](C)O` [TT 830-843], for which, in experiment [6], the “antigen concentration at which the 10,000 cpm proliferation level was reached” value is reported as “about 10,000 ng/ml” and the “donors with primary T cell responses” value is 2 out of 3. The “number of HLA-DR molecules bound” value in experiment [7] was “seven of 16”.
In the case of `CC[C@H](C)[C@H](NC(=O)[C@H](CCC(=O)O)NC(=O)[C@@H](N)CCCNC(=N)N)C(=O)N1CCC[C@H]1C(=O)N[C@@H](CC(=O)O)C(=O)N[C@@H](CC(C)C)C(=O)N[C@@H](CC(C)C)C(=O)N[C@@H](CCC(=O)O)C(=O)N[C@@H](CCCCN)C(=O)NCC(=O)O` [compound 564], the results for the IC50 in [8], in experiment [9] and in experiment [10] were 649 nM, 4490 nM and 1980 nM, respectively. The compound also returned a Degeneracy in experiment [11] of 1.

The record behind these values is EP1903056A2, “HLA-A1, -A2 -A3, -A24, -B7, and -B44 tumor associated antigen peptides and compositions” (priority 2002, dated 2004).
